Measured values published in patent publication US20240409659A1.

Assays:
[1] = target: Human FcγRI (human) (UniProt P12314); assay: Octet BLI, receptor on HIS1K sensor
[2] = target: Human FcγRIIA (human) (UniProt P12318); assay: Octet BLI, receptor on HIS1K sensor
[3] = target: Human FcγRIIB (human) (UniProt P31994); assay: Octet BLI, receptor on HIS1K sensor
[4] = target: Human FcγRIIIB (human) (UniProt O75015); assay: Octet BLI, receptor on HIS1K sensor
[5] = target: Human FcRn (human) (UniProt P55899); assay: Octet BLI, FcRn on HIS1K sensor, pH 6.0

## control IgG (7101+7103) (antibody)
[1]
  Response: 0.54 nm
[2]
  Response: 0.483 nm
[3]
  Response: 0.171 nm
[4]
  Response: 0.0847 nm
[5]
  Response: 0.226 nm
